The target in one experiment is human μ-opiate receptor (Homo sapiens, UniProt P35372). In words: μ-opiate receptor binding, [3H]-Naloxon displacement. As to conditions: test substance 1 μmol/l; CHO-K1 membranes expressing human μ-opiate receptor; 1 nmol/l [3H]-Naloxon.
Experiment [1] deals with binding site 2 of the sodium channel (BTX binding site). The experiment in a line: Sodium channel binding site 2 (BTX bond), [3H]-batrachotoxinin A20 α-benzoate. The settings on record: synaptosomes from rat cerebrocortex, 10 nM [3H]-batrachotoxinin A20 α-benzoate.
In the next experiment the target is ORL1 receptor (Homo sapiens, UniProt P41146). The experiment in a line: ORL1 receptor-binding assay with 3H-nociceptin/orphanin FQ. The settings on record: test concentration 1 μM; membranes of recombinant CHO-ORL1 cells; 0.5 nM 3H-nociceptin/orphanin FQ.

Chains of the proteins cited; added tags and fusions are not shown. Lines headed by an entry give the natural chain unless they say otherwise; changes in a name come on top.
UniProt P35372, whole entry, looked up: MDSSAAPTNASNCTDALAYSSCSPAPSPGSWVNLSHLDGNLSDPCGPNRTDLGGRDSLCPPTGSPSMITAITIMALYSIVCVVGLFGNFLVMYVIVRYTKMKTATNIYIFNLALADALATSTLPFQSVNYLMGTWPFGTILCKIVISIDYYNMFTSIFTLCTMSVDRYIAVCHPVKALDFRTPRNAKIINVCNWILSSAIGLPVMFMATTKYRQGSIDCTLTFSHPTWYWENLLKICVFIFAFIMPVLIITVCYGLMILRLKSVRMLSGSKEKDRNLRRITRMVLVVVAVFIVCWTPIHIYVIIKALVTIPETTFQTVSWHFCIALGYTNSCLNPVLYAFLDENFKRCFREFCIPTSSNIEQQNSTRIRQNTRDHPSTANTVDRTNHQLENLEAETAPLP
UniProt P41146: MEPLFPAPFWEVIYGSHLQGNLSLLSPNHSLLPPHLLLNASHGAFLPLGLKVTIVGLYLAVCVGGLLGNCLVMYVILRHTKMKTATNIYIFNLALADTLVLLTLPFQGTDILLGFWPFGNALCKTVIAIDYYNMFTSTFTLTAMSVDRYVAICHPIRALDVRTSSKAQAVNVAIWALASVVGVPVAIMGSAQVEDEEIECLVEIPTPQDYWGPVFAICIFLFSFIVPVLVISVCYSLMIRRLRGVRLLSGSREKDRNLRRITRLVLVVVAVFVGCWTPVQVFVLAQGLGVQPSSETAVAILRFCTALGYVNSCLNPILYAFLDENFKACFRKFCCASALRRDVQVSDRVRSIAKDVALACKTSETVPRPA

The values that follow come from patent US7288560B2, “Spirocyclic cyclohexane derivatives” (dated 2007).

For `CN(C)C1(c2cccc(F)c2)CCC2(CC1)OCCc1[nH]c3ccccc3c12.O=S(=O)(O)C(F)(F)F` (centres unmarked), the “% inhibition [1 μM]” value on human μ-opiate receptor is 59%. Also, the “% inhibition [10 μM]” value in experiment [1] was 74%.
For `CN(C)C1(c2ccccc2)CCC2(CC1)OCCc1[nH]c3ccccc3c12.O=C(O)CC(O)(CC(=O)O)C(=O)O` (centres unmarked) the same measures were 61% and 76%.
Turning to “N,N-dimethyl-N-{4-(3-fluorophenyl)-spiro[cyclohexane-1.4′-1′,4′-dihydro-2′H;-3′-oxa-9′-thiafluoren]-4-yl}ammonium triflate”, the “% inhibition [10 μM]” value in experiment [1] came out at 76%.
Turning to “N,N-dimethyl-N-{4-(4-fluorophenyl)-1′,3′,4′,5′-tetrahydro-spiro[cyclohexane-1,1′-pyrano[4.3-b]indol]-4-yl}ammonium triflate”, on human μ-opiate receptor, the “% inhibition [1 μM]” value stood at 62%. The “% inhibition [10 μM]” value in experiment [1] amounted to 64%.
For the molecule “N,N-dimethyl-N-{4-(4-fluorophenyl)-spiro[cyclohexane-1,4′-1′,4′-dihydro-2′H;-3′-oxa-9′-thiafluoren]-4-yl}ammonium triflate”, the “% inhibition [10 μM]” value in experiment [1] is reported as 71%.
On to “N,N-dimethyl-N-{4-phenyl-1′,4′-dihydrospiro[cyclohexane-1,4′-2′H-3′,9′-dioxafluoren]-4-yl}ammonium methane sulphonate”, for which the “% inhibition [1 μM]” value on human μ-opiate receptor amounted to 60%. Moreover, in experiment [1], the “% inhibition [10 μM]” value turned out to be 86%.
On to “N,N-dimethyl-N-{4-phenyl-1′,4′-dihydrospiro[cyclohexane-1,4′-2′H-9′-oxa-3′-thiafluoren]-4-yl}ammonium methane sulphonate”, for which the “% inhibition [10 μM]” value in experiment [1] came out at 74%.
On to “N,N-dimethyl-N-{4-phenyl-1′,4′-dihydrospiro[cyclohexane-1,4′-2′H;-3′,9′-dithiafluoren]-4-yl}ammonium methane sulphate”, for which the “% inhibition [10 μM]” value in experiment [1] came to 75%.
For “N,N-dimethyl-N-{4-phenyl-spiro[cyclohexane-1,4′-1′,4′-dihydro-2′H;-3′-oxa-9′-thiafluoren]-4-yl}aminetriflate”, on human μ-opiate receptor, the “% inhibition [1 μM]” value was 54%. In addition, the “% inhibition [10 μM]” value in experiment [1] stood at 82%.
For the molecule “N,N-dimethyl-N-{4-pyridine-1′,3′,4′,5′-tetrahydro-spiro[cyclohexane-1-1′-pyrano[4,3-c]indol]-4-yl}amine citrate”, the “% inhibition [1 μM]” value on human μ-opiate receptor is 78%. On ORL1 receptor, the “% inhibition (ORL1 bond)” value was 49%. The “% inhibition [10 μM]” value in experiment [1] worked out at 84%.
